Among the data in article PMC8923076 (Cell chemical biology, 2021) are IC50 and Kd values, retold here.

By UniProt entry, the sequences of proteins in these tests, tags left out. Residues count along the entry.
UniProt O95619, whole entry: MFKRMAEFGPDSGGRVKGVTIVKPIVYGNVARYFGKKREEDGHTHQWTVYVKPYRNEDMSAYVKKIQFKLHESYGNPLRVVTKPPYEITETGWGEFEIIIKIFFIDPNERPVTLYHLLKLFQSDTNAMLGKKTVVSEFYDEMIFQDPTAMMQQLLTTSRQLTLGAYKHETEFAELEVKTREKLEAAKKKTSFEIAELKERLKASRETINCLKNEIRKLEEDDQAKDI
UniProt O95619, 1-148: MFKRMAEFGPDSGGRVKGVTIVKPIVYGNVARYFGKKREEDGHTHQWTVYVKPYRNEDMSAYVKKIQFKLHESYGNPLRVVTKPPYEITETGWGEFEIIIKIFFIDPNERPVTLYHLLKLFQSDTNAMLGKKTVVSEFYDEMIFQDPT

In assay [1] the target is his6-tagged full-length GAS41 (Homo sapiens, UniProt O95619). Description: AlphaScreen competition assay with biotin-H3K23crK27cr peptide. It is filed as binding. Conditions: read-out: IC50 AlphaScreen; 100 nM MOCR-his6-GAS41 full-length, 25 nM H3K23crK27cr-biotin; mean ± s.d., two experiments. For orientation: In Alpha technology, singlet oxygen from a donor bead excites a nearby acceptor bead.

In assay [2] the target is GST-GAS41(1–148) YEATS domain (Homo sapiens, UniProt O95619). Description: Fluorescence polarization. The following applies: read-out: IC50 FP; 1 μM GST-GAS41(1–148), 25 nM FAM-H3K23crK27cr; mean ± s.d., two experiments. It is filed as binding. (In general: Fluorescence polarisation rises when a labelled molecule tumbles more slowly, as on binding a larger partner.)
For assay [3], the target named is GST-fused GAS41 YEATS domain (Homo sapiens, UniProt O95619). Description: FP direct binding of FAM-H3K23crK27cr. The following applies: read-out: KD (FP binding); binding to GST-fused GAS41 YEATS domain.
Assay [4] addresses MOCR-his6-GAS41 (full-length) (human, UniProt O95619 1-227). Description: AlphaScreen or HTRF.
In assay [5] the target is T1, GST-fused GAS41 YEATS domain (residues 1-148) (human, UniProt O95619 1-148). Description: fluorescence polarisation.
In assay [6] the target is T1, GST-fused GAS41 YEATS domain (residues …). Description: fluorescence polarisation. The source holds these as a separate data set.

The term IC50 denotes the midpoint of a concentration-inhibition curve. With “Ac-ATKAAR{K-Ac}SAP-NH2 [Compound H3K27ac]”, the half-maximal inhibitory concentration (IC50) amounted to 24 ± 8 µM in assay [1] and 243 ± 45 µM in assay [2]. Take “Ac-GGKAPR{K-Ac}QLATKAAR{K-Ac}SAP-NH2 [Compound H3K18acK27ac]”: the results for the IC50 in assay [1] and in assay [2] were 1.9 ± 0.2 µM and 50 ± 9 µM, respectively. Take “Ac-RKSTGG{K-Ac}APRKQLATKAAR{K-Ac}SAP-NH2 [Compound H3K14acK27ac]”: the 50% inhibitory concentration (IC50) in assay [1] stood at 1.4 ± 0.4 µM; in assay [2], 53 ± 3 µM. For orientation: Kd means the equilibrium constant for the complex coming apart. For “FAM-QLAT[K-cr]AAR[K-cr]SAPA-NH2 [FAM-H3K23crK27cr]”, in assay [3], the Kd was found to be 1.3 µM.

B1: H3K18acK27ac peptide (peptide)
peptide: GGKAPRKQLATKAARKSAP
modifications: N-terminal acetyl; acetyl-lysine at K18 and K27; C-terminal amide
For the molecule B1, the IC50 in assay [4] is 1.9 µM.

B2: FAM-H3K23crK27cr (fluorescein-labeled di-crotonylated histone H3 peptide) (peptide)
peptide: QLATKAARKSAPA
modifications: N-terminal 6-fluorescein (FAM); crotonyl-lysine at K23 and K27; C-terminal amide
Turning to B2, the Kd in assay [5] is 1.3 µM.

B3: H3K27ac peptide (peptide)
peptide: ATKAARKSAP
modifications: N-terminal acetyl; acetyl-lysine at K27; C-terminal amide
In the case of B3, the concentration for half-maximal inhibition (IC50) was determined as 24 µM in assay [4] and 243 µM in assay [6].

B4: H3K14acK27ac peptide (peptide)
peptide: RKSTGGKAPRKQLATKAARKSAP
modifications: N-terminal acetyl; acetyl-lysine at K14 and K27; C-terminal amide
With B4, the IC50 in assay [4] amounted to 1.4 µM; in assay [6] it was 53 µM.
